UUG fidelity – yeast start codon fidelity modulation | S. cerevisiae UUG-firefly luciferase reporter, luminescence/redox ratio | activity score, % at 18.7 µM | hit rate 0.13% among 350,000 | AID 602363;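 active means replicate mean at a twofold rise or more, about +100% in these data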;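 further: firefly luciferase made from a UUG start codon reports start codon fidelity; reporter light over untreated wells divided by growth signal over untreated wells; some hits fall short of that in this replicate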
Env fusion inh – HIV envelope-mediated fusion inhibition; HeLa-JRFL Env/CEM21 cell fusion, luciferase; inhibition, % at 12.3 µM; 360,000 tested, 1.1% active;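 active means mean replicate inhibition score of at least 50 and every replicate individually at or above 50; inconclusive means only one of the two criteria met; inactive means mean below 50 and not all replicates reaching 50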;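 further: 0% = plate neutral controls and 100% = maraviroc near 300 nM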
PGC1a acetyl inh – lowers PGC1a acetylation signal in U2OS cells | AlphaScreen anti-acetyl-lysine; with virally co-expressed GCN5 acetyltransferase | inhibition, % at 15.6 µM | 350,000 tested, 0.17% active | AID 651687;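 active means every replicate shows inhibition of at least 40%; inconclusive means mean inhibition at least 40% but some replicate below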;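 further: 0% = neutral control wells and 100% = positive control wells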
FN deposit inh – fibronectin deposition inhibition. AH1F fibroblasts, Alexa488-fibronectin deposition fluorescence, overnight. inhibition, % at 12.6 µM. 350,000 tested, 0.086% active. AID 743247;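 active means mean inhibition across replicates of 30% or more, regardless of how many single replicates reach that level; inconclusive means mean under 30% yet at least half of replicates reach 30%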;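 further: positive control wells lacked labelled fibronectin entirely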
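Test system: AH1F fibroblast monolayer depositing Alexa488-labelled fibronectin into matrix. Input: 10000 cells per well. Technique: fluorescence, ex 485 nm, em 525 nm. Buffer or medium: DMEM plus 2% serum, read in PBS. Timing: 1 h cell adhesion before compound, then overnight fibronectin incubation. Compound: single dose, pinned. Read-out basis: inhibition from reduced deposited-fibronectin fluorescence.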
miR122 inh – miR-122 inhibition in Huh7 cells. activation (reporter increase), % at 12.5 µM. 340,000 tested, 0.3% active. Huh7 miR-122 Renilla luciferase sensor, 48 h; neutral wells = 0, positive control = 100. AID 602342;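 active means mean replicate activation score at least 90 and every replicate individually at or above 90; inconclusive means only one of the two criteria met; inactive means neither criterion met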;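 further: higher luciferase means less miR-122 activity so hits act as miR-122 inhibitors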
Cneo AK release – Cryptococcus neoformans lysis via adenylate kinase release. C. neoformans lysis, adenylate kinase release luminescence, 4 h; normalised: neutral wells 0, clomiphene wells 100. lysis activity, % at 15 µM. 360,000 tested, 0.2% active;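 active means mean lysis activity across replicates of at least 80%, whatever share of replicates individually reach that level; inactive means mean lysis activity below 80%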
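Assay system: Cryptococcus neoformans yeast cells / Dosing: single-point compound dose / Timing: 4 h at 37 °C static, read 1 h later / Measured by: luminescence of released adenylate kinase using an AK detection reagent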
Active calls of the source: *; u = inconclusive; x = no result given; ! = not confirmed by another sample; [ ] = dose if it differs, or a comment. Most compounds without a hit are left out; they make up all but 1.5% or so of the library.

Assay codes: A = UUG fidelity; B = Env fusion inh; C = PGC1a acetyl inh; D = FN deposit inh; E = miR122 inh; F = Cneo AK release
> CC(C)(C)c1ccc(OCC(=O)N2CCN(C=O)CC2)cc1
  A: -9 | B: x | C: -10 | D: x | E: -3 | F: -2

> CCC1(c2ccc(F)cc2)NC(=O)N(CC(=O)Nc2ccc(-c3nc4ccc(C)cc4s3)cc2)C1=O (stereo not given)
  A: -32 | B: -94 | C: x | D: -12 | E: 271* | F: -3

> CN(C)c1ccc(/C=N/Nc2ccc(-n3ccnc3)nn2)cc1
  A: -24 | B: x | C: -12 | D: x | E: 4 | F: -3

> Cc1nc([N+](=O)[O-])c(Br)n1CC(=O)c1ccc(Br)cc1
  A: -25 | B: 24 | C: 64* | D: 7 | E: -24 | F: -2

> Cc1nc([N+](=O)[O-])c(Br)n1CC(=O)c1ccccc1
  A: x | B: x | C: -8 | D: x | E: 0 | F: x

> CC12CCC(C(=O)NCc3ccc4c(c3)OCO4)(OC1=O)C2(C)C (stereo not given)
  A: -12 | B: x | C: -1 | D: x | E: -6 | F: -1

> Oc1nc(Nc2cccc(Cl)c2)sc1/C=C1\C=Nc2ccccc21
  A: -27 | B: 8 | C: x | D: 2 | E: 22 | F: -4

> CCOC(=O)c1c(Nc2ccc(Cl)cc2)sc(/C=C2\C=Nc3ccccc32)c1O
  A: -9 | B: -12 | C: -1 | D: 4 | E: 107*! | F: -1

> Cc1cc(C)c2oc(=O)cc(CN3CCN(Cc4ccccc4)CC3)c2c1
  A: -7 | B: 8 | C: 5 | D: 1 | E: -1 | F: 0

> COc1ccc(NC(=O)NCCN2CCc3ccccc3C2)cc1
  A: -17 | B: x | C: 0 | D: x | E: -1 | F: -1

> O=C(NCCCN1CCc2ccccc2C1)Nc1ccc(Cl)cc1
  A: 6 | B: 79* | C: -21 | D: 7 | E: -1 | F: -2

> CCOC(=O)N1CCN(C(=O)C[C@H]2C[C@@]3(C(=O)OC)C(=C[C@H](C(C)(C)C)O[C@@H]3C)N(CCC3=CCCCC3)C2=O)CC1
  A: x | B: 98* | C: x | D: -3 | E: x | F: x

> CCOC(=O)N1CCN(C(=O)C[C@H]2C[C@@]3(C(=O)OC)C(=C[C@H](C(C)(C)C)O[C@@H]3C)N(Cc3ccccc3)C2=O)CC1
  A: x | B: 20 | C: x | D: -1 | E: x | F: x

> COC(=O)[C@]12C[C@H](CC(=O)N3CCN(C(=O)C4CC4)CC3)C(=O)N(CCC3=CCCCC3)C1=C[C@H](C(C)(C)C)O[C@@H]2C
  A: x | B: 57* | C: x | D: -4 | E: x | F: x

> COc1cc(C(=O)NCCC(=O)NCCc2ccc(Cl)cc2)cc(OC)c1OC
  A: x | B: 3 | C: x | D: -1 | E: x | F: x

> Cc1ccc(-n2ncc3c(N4CCN(c5ccccc5)CC4)ncnc32)c(C)c1
  A: -10 | B: 90* | C: -5 | D: -5 | E: -15 | F: x

> Cc1ccc(-n2ncc3c(NCc4cccnc4)ncnc32)c(C)c1
  A: x | B: 58* | C: x | D: -12 | E: x | F: x

> COc1ccc(N2CCN(c3ncnc4c3cnn4-c3ccc(C)cc3C)CC2)cc1
  A: -29 | B: x | C: -19 | D: x | E: 13 | F: -3

> CCNC(=O)C[C@@H]1C=C[C@H](NC(=O)C2CCC2)[C@@H](CO)O1
  A: -3 | B: -25[16.7 µM] | C: -4 | D: -1 | E: x | F: 2

> CC12CCC(c3c(C(=O)Nc4nccs4)nn(-c4ccccc4)c31)C2(C)C (stereo not given)
  A: -4 | B: x | C: 18 | D: x | E: 4 | F: 4

> CCOC(=O)c1oc2cccc(O)c2c1CN(Cc1ccccc1)C(C)=O
  A: -8 | B: 60* | C: -2 | D: 2 | E: 4 | F: 1

> CCn1nnc(-c2ccccc2NS(=O)(=O)c2ccc(S(=O)(=O)N3CCCCCC3)cc2)n1
  A: 6 | B: x | C: -4 | D: x | E: -7 | F: 0

> O=C(C[C@@H]1C[C@H]2c3cc(NC(=O)C4CCC4)ccc3O[C@H]2[C@H](CO)O1)NCc1ccc2c(c1)OCO2
  A: -2 | B: 6[16.7 µM] | C: 26 | D: -9 | E: -2[16.7 µM] | F: 0

> O=C(C[C@@H]1C[C@@H]2c3cc(NC(=O)C4CCOCC4)ccc3O[C@@H]2[C@@H](CO)O1)NCc1ccc2c(c1)OCO2
  A: x | B: -24[16.7 µM] | C: -2 | D: x | E: 3[16.7 µM] | F: -4

> O=C(C[C@@H]1C[C@@H]2c3cc(NC(=O)C4CCC4)ccc3O[C@@H]2[C@@H](CO)O1)NCc1ccc2c(c1)OCO2
  A: -12 | B: 79*[16.7 µM] | C: 3 | D: 12 | E: -3[16.7 µM] | F: -7

Reprinted from the part before: two compounds, followed by the next part.
Assay codes: A = UUG fidelity; B = Env fusion inh; C = PGC1a acetyl inh; D = FN deposit inh; E = miR122 inh; F = Cneo AK release
> O=C(C[C@@H]1C[C@@H]2c3cc(NC(=O)C4CCOCC4)ccc3O[C@@H]2[C@@H](CO)O1)NCc1ccc2c(c1)OCO2
  A: x | B: -24[16.7 µM] | C: -2 | D: x | E: 3[16.7 µM] | F: -4

> O=C(C[C@@H]1C[C@@H]2c3cc(NC(=O)C4CCC4)ccc3O[C@@H]2[C@@H](CO)O1)NCc1ccc2c(c1)OCO2
  A: -12 | B: 79*[16.7 µM] | C: 3 | D: 12 | E: -3[16.7 µM] | F: -7

> O=C(C[C@H]1C[C@H]2c3cc(NC(=O)C4CCC4)ccc3O[C@H]2[C@H](CO)O1)NCc1ccc2c(c1)OCO2
  A: -5 | B: 81*[16.7 µM] | C: -5 | D: 6 | E: 4[16.7 µM] | F: -4

> CCN1C(=O)CCCc2ccccc21
  A: -11 | B: -8 | C: 68* | D: x | E: 3 | F: 0

> O=C1CCCc2ccccc2N1Cc1ccc(F)cc1
  A: x | B: -3 | C: 4 | D: 6 | E: x | F: x

> O=C(NCCc1ccccc1)C1CCN(S(=O)(=O)N2CCCCC2)CC1
  A: -3 | B: -4 | C: 5 | D: -20 | E: -8 | F: 0

> CC1CCN(S(=O)(=O)N2CCC(C(=O)NCCc3ccccc3)CC2)CC1
  A: -8 | B: -7 | C: -5 | D: 0 | E: 143* | F: 0

> O=C(Nc1ccc(N2CCN(C(=O)c3cccs3)CC2)cc1)c1cccc(F)c1
  A: -2 | B: -9 | C: x | D: -1 | E: 5 | F: 16

> Cc1cc(SCCC(=O)O)nc2ccccc12
  A: 2 | B: x | C: 14 | D: x | E: -2 | F: -2

> Cc1cc(SCC(=O)N2CCCC2=O)nc2ccccc12
  A: x | B: 58* | C: -2 | D: 1 | E: -5 | F: x

> C[C@@H]1CN([C@H](C)CO)C(=O)Cc2cc(NC(=O)Nc3ccc4c(c3)OCO4)ccc2O[C@@H]1CN(C)C(=O)Nc1ccc(C(F)(F)F)cc1
  A: -12 | B: 12[16.7 µM] | C: -1 | D: x | E: 1[16.7 µM] | F: 3

> Cc1nc(Sc2ccccc2)c(C#N)c(C)c1[N+](=O)[O-]
  A: 19 | B: -3 | C: -4 | D: 8 | E: -1 | F: 4

> Fc1cccc(CCN2C(=S)NC[C@@H]2Cc2ccccc2)c1
  A: -17 | B: 14 | C: x | D: 10 | E: x | F: 142*

> CCCC[C@@H]1CNC(=S)N1CCc1cccc(F)c1
  A: -22 | B: 28 | C: -3 | D: -2 | E: 76 | F: 16

> CC(NC(=O)CSc1nc2sc3c(c2c(=O)n1-c1ccccc1)CCCC3)c1ccccc1 (stereo not given)
  A: -42 | B: 103* | C: -18 | D: 9 | E: 2 | F: -1

> COC(=O)c1scc(S(=O)(=O)C(C)C)c1N/N=C(\C#N)C(=O)c1ccc(Cl)cc1
  A: x | B: 0 | C: x | D: -8 | E: x | F: x

> O=C(NC(=S)Nc1ccc(CN2CCOCC2)cc1)c1ccc(-c2cccc(Cl)c2)o1
  A: x | B: 15 | C: -17 | D: -18 | E: x | F: x

> O=C(Nc1ccc(CN2CCOCC2)cc1)c1ccc(-c2cccc(Cl)c2)o1
  A: -9 | B: 77* | C: 1 | D: -3 | E: -5 | F: 12

> Cc1cccc(C(=O)N(c2ccccn2)C(C)c2ccco2)c1 (stereo not given)
  A: -11 | B: -2 | C: -3 | D: 1 | E: 13 | F: 0

> CC(c1ccco1)N(C(=O)C12CC3(C)CC(C)(CC(C)(C3)C1)C2)c1ccccn1 (stereo not given)
  A: -2 | B: 76* | C: 7 | D: -10 | E: 2 | F: -2

> Cn1c(N2CCOCC2)c(/C=N/OC(=O)c2ccc(F)cc2)c2ccccc21
  A: 1 | B: 59* | C: 1 | D: 0 | E: -6 | F: 3

> Cc1ccc(C(=O)O/N=C/c2c(N3CCOCC3)n(C)c3ccccc23)cc1
  A: -10 | B: u | C: x | D: 12 | E: -7 | F: 5

> CC(C)=CCC/C(C)=C/CN1C(=O)N(c2ccc(F)cc2)[C@H]2C[C@@H](c3ccccc3)[C@@H](C)[C@@H](C(=O)N3CCOCC3)C[C@H]21
  A: x | B: 76* | C: x | D: -3 | E: x | F: x

> O=C1N=C(N2CCCCC2)S/C1=C/C1=Cc2ccccc2OC1
  A: x | B: -6 | C: 2 | D: x | E: x | F: x

Of the compounds above, these contain bromine:
Assay codes: A = UUG fidelity; B = Env fusion inh; C = PGC1a acetyl inh; D = FN deposit inh; E = miR122 inh; F = Cneo AK release
> Cc1nc([N+](=O)[O-])c(Br)n1CC(=O)c1ccc(Br)cc1
  A: -25 | B: 24 | C: 64* | D: 7 | E: -24 | F: -2

> Cc1nc([N+](=O)[O-])c(Br)n1CC(=O)c1ccccc1
  A: x | B: x | C: -8 | D: x | E: 0 | F: x
